Amino acid sequences for entries named in this document (tags omitted). Residues count along the entry.
ADP-ribosylation factor GTPase-activating protein 1 (Rattus norvegicus), Q62848, UniProt Q62848, whole entry, looked up: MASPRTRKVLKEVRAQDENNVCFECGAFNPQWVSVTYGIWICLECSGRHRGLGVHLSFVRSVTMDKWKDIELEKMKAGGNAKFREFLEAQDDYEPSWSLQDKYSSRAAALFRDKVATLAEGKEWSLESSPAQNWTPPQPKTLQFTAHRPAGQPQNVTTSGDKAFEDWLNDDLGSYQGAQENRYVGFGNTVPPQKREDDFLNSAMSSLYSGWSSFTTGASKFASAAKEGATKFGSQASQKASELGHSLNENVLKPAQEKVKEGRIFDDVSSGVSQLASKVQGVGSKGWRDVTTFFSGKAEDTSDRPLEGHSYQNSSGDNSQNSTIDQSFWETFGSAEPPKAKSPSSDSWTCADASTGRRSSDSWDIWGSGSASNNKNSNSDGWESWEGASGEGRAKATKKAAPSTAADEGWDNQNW
ADP-ribosylation factor GTPase-activating protein 1 (Rattus norvegicus), Q62848, UniProt Q62848, 1-136 limits assumed: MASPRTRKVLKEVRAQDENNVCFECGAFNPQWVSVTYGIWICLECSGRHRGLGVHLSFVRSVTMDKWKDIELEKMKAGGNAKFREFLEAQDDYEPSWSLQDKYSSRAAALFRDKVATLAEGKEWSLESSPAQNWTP
Neuropilin-1 (Homo sapiens), O14786, UniProt O14786, whole entry, looked up: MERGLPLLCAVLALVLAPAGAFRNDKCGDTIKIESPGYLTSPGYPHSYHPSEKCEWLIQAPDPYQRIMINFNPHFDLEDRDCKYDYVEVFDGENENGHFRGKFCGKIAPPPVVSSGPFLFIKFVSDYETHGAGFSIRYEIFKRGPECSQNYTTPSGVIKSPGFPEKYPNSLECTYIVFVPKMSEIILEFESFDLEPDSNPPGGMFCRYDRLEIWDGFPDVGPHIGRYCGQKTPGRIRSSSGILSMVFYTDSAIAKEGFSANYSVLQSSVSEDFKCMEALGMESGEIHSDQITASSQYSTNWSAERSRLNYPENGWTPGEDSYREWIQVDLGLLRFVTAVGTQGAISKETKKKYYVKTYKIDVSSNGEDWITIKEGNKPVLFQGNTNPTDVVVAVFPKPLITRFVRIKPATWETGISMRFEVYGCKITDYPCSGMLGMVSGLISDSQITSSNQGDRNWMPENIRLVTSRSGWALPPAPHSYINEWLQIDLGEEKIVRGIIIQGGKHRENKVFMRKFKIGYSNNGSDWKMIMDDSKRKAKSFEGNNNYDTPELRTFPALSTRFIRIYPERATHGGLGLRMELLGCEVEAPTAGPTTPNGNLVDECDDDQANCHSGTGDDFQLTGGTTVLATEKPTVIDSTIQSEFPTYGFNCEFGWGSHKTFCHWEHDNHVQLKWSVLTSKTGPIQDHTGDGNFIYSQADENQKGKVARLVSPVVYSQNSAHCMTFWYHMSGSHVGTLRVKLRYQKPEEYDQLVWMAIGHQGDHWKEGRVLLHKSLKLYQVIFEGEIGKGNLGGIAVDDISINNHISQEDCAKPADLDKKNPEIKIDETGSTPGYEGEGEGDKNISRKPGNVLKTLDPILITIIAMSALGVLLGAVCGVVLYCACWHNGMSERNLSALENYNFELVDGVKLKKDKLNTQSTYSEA
Melanocortin receptor 4 (Homo sapiens), P32245, UniProt P32245, whole entry, looked up: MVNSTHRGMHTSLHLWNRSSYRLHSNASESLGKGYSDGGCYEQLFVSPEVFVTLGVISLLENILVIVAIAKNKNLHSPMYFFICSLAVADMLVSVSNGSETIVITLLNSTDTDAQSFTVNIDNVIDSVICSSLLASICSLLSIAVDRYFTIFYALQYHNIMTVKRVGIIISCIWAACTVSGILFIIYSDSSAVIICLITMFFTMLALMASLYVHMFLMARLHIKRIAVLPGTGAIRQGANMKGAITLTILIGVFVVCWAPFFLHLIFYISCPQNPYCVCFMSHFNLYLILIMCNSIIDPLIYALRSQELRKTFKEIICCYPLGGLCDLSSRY

# High-throughput results deposited in PubChem by several laboratories.
# ARFGAP1 inhibitor: inhibitors of rat ARFGAP1 GAP activity, primary screen, biochemical, fluorescence polarization, GDP tracer. inhibition, % at 16.5 µM. ADP-ribosylation factor GTPase-activating protein 1 (Rattus norvegicus), Q62848. 360,000 tested, 0.26% active. Arfgap1-stimulated ARF1 GTP hydrolysis, GDP FP detection;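 active means inhibition above a per-plate limit, mean inhibition of low control wells plus 3 SD, cut at about 25% in these data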
#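 Repeats: one replicate per compound; assay system: rat Arfgap1 catalytic domain, aa 1-136; times: enzyme reaction 120 min at 25 °C after 20 min preincubation; detection: FP of antibody-bound GDP Alexa 633 tracer, ex 620/em 688 nm; benchmarks: high control wells lacking Arfgap1, low control full reaction with DMSO; reagent: human ARF1(Δ1-17)-GTP substrate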
# NRP1-CendR mod: modulators of CendR peptide binding to NRP-1, primary screen, biochemical, fluorescence polarization, uHTS. Neuropilin-1 (Homo sapiens), O14786. FAM-RPARPAR peptide binding to NRP-1. inhibition, % at 25 µM. 360,000 tested, 0.85% active. AID 602438, 2012;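 active means inhibition or corrected inhibition above about 18%, plus a signal ratio from 0.5 to 1.5, limit read from the data, passing the limit was not always enough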
# UUG fidelity: alters start codon recognition fidelity in yeast. S. cerevisiae UUG-firefly luciferase reporter, luminescence/redox ratio. 350,000 tested, 0.13% active. activity score, % at 18.7 µM. AID 602363;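 active means replicate mean at a twofold rise or more, about +100% in these data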;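 further: firefly luciferase made from a UUG start codon reports start codon fidelity; reporter light over untreated wells divided by growth signal over untreated wells; some hits fall short of that in this replicate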
# ASAP1 GAP inh: inhibitors of human ASAP1 ArfGAP activity, primary screen, biochemical, fluorescence polarization; ASAP1-stimulated ARF1 GTP hydrolysis, GDP FP detection; inhibition, % at 16.5 µM; 360,000 tested, 0.19% active; in the data active means inhibition above about 25%
# MC4R antagonist: MC4R antagonists of cAMP signaling, primary screen, cell-based, TR-FRET, antagonist arm of biased-ligand search. MC4R-expressing cells, MTII-stimulated cAMP, LANCE TR-FRET. 360,000 tested, 0.48% active. inhibition, % at 6.5 µM. AID 540295, 2011;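 active means inhibition above its plate's cutoff, the mean of tested wells on that plate plus 3 SD, cut at about 29% in these data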
#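 Assay system: U2OS cells stably expressing human melanocortin 4 receptor (MC4R) / Dosing: 6.5 µM / Timing: compound 30 min, challenge 1 h, detection 1 h / Measured by: Eu-cAMP/anti-cAMP TR-FRET, emission 671 nm / Replicates: singlicate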
# MC4R barr agon: MC4R agonists recruiting beta-arrestin, primary screen, cell-based, luminescence, agonist arm of biased-ligand search. U2OS MC4R beta-arrestin complementation; percent of melanotan II response, DMSO zero. 360,000 tested, 0.98% active. Melanocortin receptor 4 (Homo sapiens), P32245. activation, % at 8.9 µM;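 active means activation above a per-plate cutoff, the mean activation of sample wells on that plate plus 3 SD, cut at about 8% in these data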
# MC4R barr conf: MC4R beta-arrestin agonists, retest, confirmation, cell-based, luminescence, U2OS; shares compounds with MC4R barr agon; 2,400 tested, 31% active; U2OS MC4R beta-arrestin recruitment; scaled DMSO 0%, Melanotan II 100%; AID 602192, 2012; activation, % at 8.9 µM;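 active means mean activation across replicates above the hit cutoff set in the earlier primary screen, cut at about 8% in these data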
# MOR DOR agonist: agonists of MOR-DOR heterodimerization, counter-screen for MC4R biased agonist project, cell-based, luminescence. U2OS PathHunter beta-arrestin, beta-gal luminescence; percent of deltorphin B response, DMSO zero. shares compounds with MC4R barr agon. activation, % at 9.2 µM. 2,400 tested, 5.8% active;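 active means mean activation across replicates exceeds the hit threshold derived in the earlier primary screen, cut at about 18% in these data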
# Numbers stand for hits; n = inactive; x = no result given. Most compounds without a hit are left out; they make up all but 2.3% or so of the library.
SMILES,ARFGAP1 inhibitor,NRP1-CendR mod,UUG fidelity,ASAP1 GAP inh,MC4R antagonist,MC4R barr agon,MC4R barr conf,MOR DOR agonist
CC(C)C#Cc1ccc2c(c1)O[C@@H](CN(C)Cc1cccnc1)[C@@H](C)CN([C@H](C)CO)S2(=O)=O,x,x,n,x,x,x,x,x
C[C@H](CO)N1C[C@H](C)[C@@H](CN(C)Cc2ccc(Oc3ccccc3)cc2)Oc2ccc(NC(=O)Nc3ccc(C(F)(F)F)cc3)cc2CC1=O,x,x,n,x,x,x,x,x
CCCC(=O)Nc1ccc2c(c1)OC[C@H](C)N(C(=O)CC)C[C@H](C)[C@H](OC)CN(C)C2=O,x,x,n,x,x,x,x,x
CO[C@@H]1CN(C)C(=O)c2ccc(NS(=O)(=O)c3ccccc3)cc2OC[C@H](C)N(Cc2nccs2)C[C@@H]1C,x,x,n,x,x,x,x,x
CCCCCN=C(N)N/N=C/c1c[nH]c2ccc(OC)cc12,n,n,n,n,n,10,14,31
COc1ccc(C(=O)N/N=C/c2c[nH]c3ccccc23)cc1,n,n,n,n,n,n,x,x
COc1ccc(-n2cccc2/C=C2/NC(=O)N(c3cccc(Cl)c3)C2=O)cc1,n,n,x,n,n,14,n,n
CCCn1c(SCC(=O)N2N=C3/C(=C/c4ccc(OC)cc4)CCCC3C2c2ccc(OC)cc2)n[nH]c1=O (stereo unspecified),n,n,n,n,n,13,14,n
Cc1cccc(N2CCN(S(=O)(=O)c3ccc4[nH]c(=O)ccc4c3)CC2)c1C,n,n,n,n,n,n,x,x
Cc1ccc(C)c(N2CCN(S(=O)(=O)c3ccc4[nH]c(=O)ccc4c3)CC2)c1,n,n,n,n,n,17,n,n
CCCC(=O)Nc1ccc2c(c1)C(=O)N(C)[C@H]1CC[C@H](CC(=O)N3CCc4ccccc4C3)O[C@H]1CO2,x,x,n,x,x,x,x,x
Cc1noc(C)c1NC(=O)Nc1ccc2c(c1)C(=O)N([C@H](C)CO)C[C@H](C)[C@@H](CN(C)C(=O)Nc1cccc3ccccc13)OCCCC[C@H](C)O2,x,x,n,x,x,x,x,x
CN1C(=O)c2cc(NC(=O)c3cccs3)ccc2OC[C@@H]2O[C@H](CC(=O)NCCN3CCCCC3)CC[C@H]21,x,x,n,x,x,x,x,x
O=C1C2C(C(=O)N1/N=C/c1ccc([N+](=O)[O-])o1)C1C=CC2C12CC2 (stereo unspecified),n,n,n,n,n,n,x,x
CC1=NN(c2nc(N)nc(/C(C#N)=C/c3ccc([N+](=O)[O-])o3)n2)C(C)(C)C1,n,n,x,n,n,37,163,172
COCCCN1CCN(C2Cc3ccccc3Sc3ccc(Cl)cc32)CC1 (stereo unspecified),n,n,n,n,n,13,n,n
Clc1ccc2c(c1)C(N1CCNCC1)Cc1ccccc1S2 (stereo unspecified),x,n,n,x,n,10,19,23
Clc1cccc2c1Sc1ccccc1CC2N1CCNCC1 (stereo unspecified),n,n,x,n,n,n,x,x
CC(C)NC(=O)N[C@@H]1C=C[C@@H](CC(=O)O)O[C@H]1CO,x,x,n,x,x,x,x,x
C[C@@H]1CN([C@H](C)CO)S(=O)(=O)c2ccc(-c3cccc(C#N)c3)cc2O[C@@H]1CN(C)C,x,x,n,x,x,x,x,x
Cc1ccc(-c2cc(C(=O)N(C)Cc3cnn(C)c3C)c3cc(Br)ccc3n2)cc1,n,n,x,n,n,9.7,n,n
O=C(C[n+]1cc(-c2ccc(Cl)cc2)n2c1CCC2)N1c2ccccc2Sc2ccccc21,n,n,n,n,n,n,x,x
CC1CCC(C(C)C)C(OC(=O)C[n+]2cc(-c3ccc(Cl)cc3)n3c2CCC3)C1 (stereo unspecified),n,n,x,n,n,17,n,n
c1ccc2c(c1)oc1c(Nc3ccc4c(c3)OCO4)ncnc12,n,n,n,n,n,11,n,n
C[C@@H]1CN([C@@H](C)CO)C(=O)c2cc(NC(=O)Nc3cccc4ccccc34)ccc2O[C@H]1CN(C)S(=O)(=O)c1cn(C)cn1,x,x,n,x,x,x,x,x
SMILES,ARFGAP1 inhibitor,NRP1-CendR mod,UUG fidelity,ASAP1 GAP inh,MC4R antagonist,MC4R barr agon,MC4R barr conf,MOR DOR agonist
CC/C(=N/Nc1ccc(Cl)cc1)c1cnnc(SC)n1,n,n,x,n,n,n,x,x
CC/C(=N/Nc1cccc(C)c1)c1cnnc(SC)n1,n,n,x,n,n,21,n,n
CC(C)C[C@H](CO)N(Cc1ccccc1)S(=O)(=O)N(Cc1ccccc1)[C@@H](CO)CC(C)C,n,n,n,n,n,n,x,x
O=S(=O)(N(Cc1ccccc1)[C@@H](CO)Cc1ccccc1)N(Cc1ccccc1)[C@@H](CO)Cc1ccccc1,n,n,n,n,n,13,n,n
O=C(Cc1csc(-c2ccccc2)n1)Nc1ccc(C(F)(F)F)cc1,n,n,n,n,n,14,n,n
Cc1ccc(NC(=O)Cc2csc(-c3ccccc3)n2)cc1F,n,n,x,n,n,n,x,x
O=C(Nc1ccc(F)cc1F)c1c(C(F)(F)F)ccnc1Oc1ccccc1,n,n,n,n,n,n,x,x
Cc1cccc(Oc2nccc(C(F)(F)F)c2C(=O)Nc2ccc(F)cc2F)c1,n,n,x,n,n,20,n,n
Cc1ccc(NC(=O)Cn2c(O)c(N=NC(=O)c3cc4ccccc4cc3O)c3ccccc32)cc1,n,n,n,n,n,12,n,41
O=C(N=Nc1c(O)n(Cc2ccccc2)c2ccccc12)c1cc2ccccc2cc1O,n,n,n,n,n,16,19,n
COc1ccc(S(=O)(=O)Nc2ccc3c(c2)CC(=O)N([C@@H](C)CO)C[C@@H](C)[C@@H](CN(C)S(=O)(=O)c2ccc(Cl)cc2)O3)cc1,x,x,n,x,x,x,x,x
CCOC(=O)C(C(=O)OCC)C1OC(=O)c2cc3c(cc21)C(=O)OC3C(C(=O)OCC)C(=O)OCC (stereo unspecified),n,n,x,n,n,n,x,x
